These are literature values, as cited in patent US20170165627A1, “MICROENCAPSULATION PROCESS” (ENCAPSYS, LLC, priority 2015, published 2017).

The conditions of the data set: @ 25° C.

Regarding “Ethoxylated (4) bisphenol A diacrylate [SR601]”, the Solubility in water was 0.45 g/L.
As to “ethoxylated (30) bisphenol A diacrylate [SR9038]”, the Solubility in water entry was “Water soluble”.
